Patent US20230091561A1, “METHODS OF TREATING PRIMARY PROGRESSIVE MULTIPLE SCLEROSIS USING AN INHIBITOR OF BRUTON'S TYROSINE KINASE” (Genentech, Inc., priority 2020, published 2023)

Protein sequences, listed by entry. Tags and fused reporters are not part of them. Lines headed by an entry give the natural chain unless they say otherwise; changes in a name come on top.
UniProt Q06187: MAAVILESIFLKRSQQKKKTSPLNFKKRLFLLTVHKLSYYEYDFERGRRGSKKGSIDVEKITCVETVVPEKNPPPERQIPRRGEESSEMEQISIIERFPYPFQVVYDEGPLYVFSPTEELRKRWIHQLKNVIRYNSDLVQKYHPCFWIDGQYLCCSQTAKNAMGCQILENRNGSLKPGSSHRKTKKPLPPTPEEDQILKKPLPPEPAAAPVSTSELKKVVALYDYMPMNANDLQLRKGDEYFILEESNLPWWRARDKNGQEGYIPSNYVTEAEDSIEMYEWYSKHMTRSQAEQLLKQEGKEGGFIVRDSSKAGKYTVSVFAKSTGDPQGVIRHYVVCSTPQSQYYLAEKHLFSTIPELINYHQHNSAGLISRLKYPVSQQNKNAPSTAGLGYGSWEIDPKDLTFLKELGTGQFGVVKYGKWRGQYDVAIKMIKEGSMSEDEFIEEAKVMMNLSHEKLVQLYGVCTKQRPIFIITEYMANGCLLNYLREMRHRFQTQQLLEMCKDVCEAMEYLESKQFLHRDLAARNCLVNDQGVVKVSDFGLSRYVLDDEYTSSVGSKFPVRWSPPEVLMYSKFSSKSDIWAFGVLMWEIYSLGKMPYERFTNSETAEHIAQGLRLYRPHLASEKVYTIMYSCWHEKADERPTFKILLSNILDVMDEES

Key:
[1] = molecular target: N-terminal His-tagged full-length recombinant human BTK (Homo sapiens, UniProt Q06187); test: biochemical; conditions: competitive binding kinetics
[2] = system: panel of over 200 human kinases; conditions: footnote a (Crawford et al.), cited from earlier work
BTK [3] = molecular target: T1, BTK (Homo sapiens, UniProt Q06187); conditions: read-out: BTK IC50; footnote a (Crawford et al.); cited from earlier work
BTK [4] = molecular target: T1, BTK; conditions: footnote a (Crawford et al.), cited from earlier work
[5] = system: panel of over 200 human kinases; test: Kinase selectivity panel screen, kinases inhibited >50%; assay type: biochemical
Description: The rate of FEN release from the BTK•FEN complex was quantified in a biochemical preincubation-dilution experiment, where BTK activity was recovered with a rate constant kw and residence time 1/koff.

TXK = molecular target: T2, TXK (Homo sapiens, UniProt P42681); test: Kinase selectivity IC50, TXK
T2 sequence (P42681 1-527): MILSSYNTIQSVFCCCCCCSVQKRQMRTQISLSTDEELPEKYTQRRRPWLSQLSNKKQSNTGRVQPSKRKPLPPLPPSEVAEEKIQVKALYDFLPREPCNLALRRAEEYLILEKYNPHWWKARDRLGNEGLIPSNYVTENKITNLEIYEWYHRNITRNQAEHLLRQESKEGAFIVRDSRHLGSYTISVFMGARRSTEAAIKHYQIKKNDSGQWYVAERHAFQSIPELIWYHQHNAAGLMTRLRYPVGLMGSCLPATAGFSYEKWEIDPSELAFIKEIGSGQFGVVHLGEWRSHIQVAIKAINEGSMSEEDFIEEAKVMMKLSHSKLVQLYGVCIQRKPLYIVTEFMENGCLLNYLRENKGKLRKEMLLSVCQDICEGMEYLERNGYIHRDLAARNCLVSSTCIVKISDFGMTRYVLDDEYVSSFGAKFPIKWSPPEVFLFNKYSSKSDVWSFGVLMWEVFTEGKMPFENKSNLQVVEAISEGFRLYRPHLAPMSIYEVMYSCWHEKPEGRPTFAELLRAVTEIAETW

Row | Compound | pKi ([1]; BTK Ki*) | pKi ([1]; BTK Ki, non-covalent inhibitor) | # off-target kinases >50% INH/# total kinases tested @ 1 μM ([2]; listed as FEN) | # off-target kinases >50% INH/# total kinases tested @ 1 μM [2] | pIC50 (BTK [3]) | BTK residence time (jump dilution vs. 50 μM ATP) (BTK [4]; listed as FEN) [h] | BTK residence time (jump dilution vs. 50 μM ATP) (BTK [4]) | off-target kinases inhibited by >50% / kinases tested at 10 μM [5] | # off-target kinases >50% INH/# total kinases tested @ 1 μM ([2]; listed as EVO) | pIC50 (TXK)
1 | C[C@H]1CN(C2COC2)CCN1c1ccc(Nc2cc(-c3ccnc(N4CCn5c(cc6c5CC(C)(C)C6)C4=O)c3CO)cn(C)c2=O)nc1 [Fenebrutinib] | 9.77 | 8.15 | 3/286 | 2/286 ^a | 8.64 | 18.3 | 18.3 ^a h |  |  | 
2 | C=CC(=O)N1CCC(CNc2ncnc(N)c2-c2ccc(Oc3ccccc3)cc2)CC1 [Evobrutinib] |  |  |  | 3/221 ^a |  |  |  | 18/218 | 3/221 | 6.60

pIC50, pKi: −log10 of the molar value. Where two headings read alike, the source gives them in different places.
